Measured values: patent EP0498222A1, “Novel peptides” (SUMITOMO CHEMICAL COMPANY LIMITED, priority 1991, dated 1992)

Key:
[1] = test system: last instar larvae of Spodoptera litura; assay: Paralyzing activity by injection; conditions: 36 pmol injected on day 0 of last instar
[2] = test system: last instar larvae of Pseudaletia separata; assay: Insecticidal activity by injection; conditions: injected on day 0 of last instar; table prints 7 pmol, text 4 picomoles

For `CSCC[C@@H]1NC(=O)[C@H](Cc2ccc(O)cc2)NC(=O)CNC(=O)[C@H](C)NC(=O)[C@H](C(C)C)NC(=O)[C@@H](NC(=O)CNC(=O)CNC(=O)[C@H](CO)NC(=O)[C@H](Cc2ccccc2)NC(=O)[C@H](CC(N)=O)NC(=O)[C@@H](N)CCC(=O)O)CSSC[C@@H](C(=O)N[C@@H](CCCCN)C(=O)N2CCC[C@H]2C(=O)N[C@H](C(=O)N[C@@H](Cc2ccccc2)C(=O)N[C@@H](Cc2ccc(O)cc2)C(=O)N[C@@H](CCC(N)=O)C(=O)O)[C@@H](C)O)NC(=O)[C@H](CCCNC(=N)N)NC(=O)CNC(=O)[C@H](CC(=O)O)NC(=O)[C@@H]2CCCN2C(=O)[C@H]([C@@H](C)O)NC(=O)[C@H](CCCNC(=N)N)NC1=O`, the “paralysis (%) after 10 min” value [1] was 75.0% and the “Mortality (%) after 48 hours” value [2] was 100%.
